The values below come from patent US20120114564A1, “MRI T1 CONTRASTING AGENT COMPRISING MANGANESE OXIDE NANOPARTICLE” (SEOUL NATIONAL UNIVERSITY INDUSTRY FOUNDATION, priority 2007, published 2012).

For this experiment, the system named is MDA-MB-435 human breast cancer cells. In words: Cancer specific MRI in breast cancer brain metastatic tumor model. Conditions: 25 nm, 35 mg of Mn per kg body weight, bolus tail vein, 4.7T. The format is in vivo, mouse.

For “Herceptin conjugated MnO nanoparticles: Maleimido-PEG-phospholipid coated MnO nanoparticles conjugated with the breast cancer specific antibody Herceptin”, the “Cancer cell targeting MR images compared with non-functionalized MnO nanoparticles” value is given as “more excellent cancer cell targeting MR images”.
